Experimental findings from US6083917A, “Methods and compositions for the identification, characterization and inhibition of farnesyltransferase” (Board of Regents, The University of Texas System, priority 1992, dated 2000) are described below.

The test deals with rat brain farnesyltransferase (Rattus norvegicus, UniProt Q02293+Q04631). In words: Farnesyltransferase assay: transfer of [3H]farnesyl from [3H]FPP to p21H-ras (TCA filter assay), competition by peptides. Type of test: biochemical. More on the design: Brains from 50 male Sprague-Dawley rats (100-150 g) were homogenized; from tissue; host or cells: rat brain (male Sprague-Dawley rats). As to the method:
Farnesyltransferase activity was determined by measuring the amount of ^3 H-farnesol transferred from all-trans ^3 H]farnesyl pyrophosphate ([^3 H]FPP) to p21^H-ras protein. The standard reaction mixture contained the following concentrations of components in a final volume of 25 μl: 50 mM Tris-chloride (pH 7.5), 50 μM ZnCl2, 20 mM KCl, 1 mM DTT, and 40 μM p21^H-ras. The mixture also contained 10 pmoles of [^3 H]FPP (~30,000 dpm/pmol) and 1.8-3.5 μg of partially purified farnesyltransferase (see below). After incubation for 1 hour at 37° C. in 12×75-mm borosilicate tubes, the reaction was stopped by addition of 0.5 ml of 4% SDS and then 0.5 ml of 30% trichloroacetic acid (TCA).
The tubes were vortexed and left on ice for 45-60 min, after which 2 ml of a 6% TCA/2% SDS solution were added. The mixture was filtered on a 2.5-cm glass fiber filter with a Hoefer filtration unit (FH 225). The tubes were rinsed twice with 2 ml of the same solution, and each filter was washed five times with 2 ml of 6% TCA, dried, and counted in a scintillation counter. One unit of activity is defined as the amount of enzyme that transfers 1 pmol of [^3 H]farnesol from [^3 H]FPP into acid-precipitable p21^H-ras per hour under the standard conditions.
The standard assay involved measuring the amount of [^3 H]farnesyl transferred from all-trans [^3 H]FPP to recombinant human p21^H-ras as described in Example I. Each reaction mixture contained the following concentrations of components in a final volume of 25 μl: 50 mM Tris-chloride (pH 7.5), 50 μM ZnCl2, 30 mM KCl, 1 mM DTT, 30 or 40 μM p21^H-ras, 15 pmol [^3 H]FPP (12-23,000 dpm/pmol), 4 to 7.5 μg of partially purified farnesyltransferase (Mono Q fraction, see Example I), and the indicated concentration of competitor peptide added in 3 μl of 10 mM DTT. […] This blank value was subtracted before calculating "% of control" values.
The amount of [^3 H]farnesyl transferred from all-trans-[^3 H]farnesyl pyrophosphate to recombinant p21^H-ras was measured in a filter assay as previously described (62).

Setting [1] is: Example II, partially purified rat brain enzyme, p21H-ras acceptor, read-out: Concentration giving 50% inhibition of farnesyltransferase (text, FIG. 14 / Table II).
[2] abbreviates: Table II, partially purified rat farnesyltransferase, p21H-ras acceptor, seven concentrations 0.03 to 100 μM, read-out: Concentration for 50% Inhibition.

Read-outs that look alike come from different tables or passages of the source. A value given as a limit tells only on which side of the number the result lay.

With `CC[C@H](C)[C@H](NC(=O)[C@H](C)NC(=O)[C@@H](N)CS)C(=O)N[C@@H](CC(C)C)C(=O)O` [CAIL], the IC50 by setting is: under setting [1], 100 µM; under setting [2], 100 µM. Take `CC(C)[C@H](NC(=O)[C@H](CS)NC(=O)[C@@H](N)CS)C(=O)N[C@@H](CCC(N)=O)C(=O)O` [CCVQ]: under setting [2], the IC50 came out at 0.35 µM.

Take `CC[C@H](C)[C@H](NC(=O)[C@@H](NC(=O)[C@@H](N)CS)[C@@H](C)CC)C(=O)N[C@@H](CS)C(=O)O` [CIIC]: under setting [2], the IC50 came out at 0.35 µM. Consider `CC[C@H](C)[C@H](NC(=O)[C@@H](NC(=O)[C@@H](N)CS)[C@@H](C)CC)C(=O)N[C@@H](CO)C(=O)O` [CIIS], for which, under setting [2], the IC50 came out at 0.35 µM. On to `CC[C@H](C)[C@H](NC(=O)[C@@H](N)CS)C(=O)N[C@@H](CCCCN)C(=O)N[C@@H](CO)C(=O)O` [CIKS], for which, under setting [2], the IC50 is more than 100 µM. On the same count and under the same terms, under `CC[C@H](C)[C@H](NC(=O)[C@H](CC(C)C)NC(=O)[C@@H](N)CS)C(=O)N[C@@H](CC(C)C)C(=O)O` [CLIL] stands 17 µM; under `CC(C)C[C@H](NC(=O)[C@H](CC(C)C)NC(=O)[C@H](CC(C)C)NC(=O)[C@@H](N)CS)C(=O)O` [CLLL], 22 µM. Regarding `CC(C)[C@H](NC(=O)[C@@H](NC(=O)[C@@H](N)CS)[C@@H](C)O)C(=O)N[C@@H](C)C(=O)O` [CTVA], the IC50 under setting [1] was 30 µM and the IC50 under setting [2] was determined as 30 µM. For the compound `CSCC[C@H](NC(=O)[C@H](Cc1ccccc1)NC(=O)[C@@H](NC(=O)[C@@H](N)CS)C(C)C)C(=O)O` [CVFM, Cys-Val-Phe-Met], the IC50 is 0.025 µM under setting [1]; 0.07 µM (FIG. 23A, Mono Q fraction, 0.5 μM [3H]farnesyl pyrophosphate, 30 min at 37° C., read-out: Concentration giving 50% inhibition of farnesylation of p21H-ras); 0.032 to 0.09 µM (Table III footnote, 3-month period, read-out: 50% inhibition values, range over 9 consecutive experiments).

As for `CC[C@H](C)[C@H](NC(=O)[C@@H](NC(=O)[C@@H](N)CS)C(C)C)C(=O)N[C@@H](C)C(=O)O` [CVIA], the IC50 turned out to be 5 µM.

On to `CC[C@H](C)[C@H](NC(=O)[C@@H](NC(=O)[C@@H](N)CS)C(C)C)C(=O)N[C@@H](CC(C)C)C(=O)O` [CVIL], for which the IC50 under setting [1] stood at 12 µM and the IC50 under setting [2] came to 11 µM.

For the compound `CC[C@H](C)[C@H](NC(=O)[C@@H](NC(=O)[C@@H](N)CS)C(C)C)C(=O)N[C@@H](CO)C(=O)O` [CVIS], the IC50 under setting [2] was determined as 1 µM. In the case of `CSCC[C@H](NC(=O)[C@H](CC(C)C)NC(=O)[C@@H](NC(=O)[C@@H](N)CS)C(C)C)C(=O)O` [CVLM], under setting [2], the IC50 amounted to 0.15 µM. Same read-out and setting: under `CC(C)C[C@H](NC(=O)[C@@H](NC(=O)[C@@H](N)CS)C(C)C)C(=O)N[C@@H](CO)C(=O)O` [CVLS] stands 3 µM.
